{"sequences": {"note": "Sequences of proteins named here, by UniProt entry; tags and fusion partners are left off. Residues count along the entry.", "UniProt P01031, 19-1676 limits assumed": "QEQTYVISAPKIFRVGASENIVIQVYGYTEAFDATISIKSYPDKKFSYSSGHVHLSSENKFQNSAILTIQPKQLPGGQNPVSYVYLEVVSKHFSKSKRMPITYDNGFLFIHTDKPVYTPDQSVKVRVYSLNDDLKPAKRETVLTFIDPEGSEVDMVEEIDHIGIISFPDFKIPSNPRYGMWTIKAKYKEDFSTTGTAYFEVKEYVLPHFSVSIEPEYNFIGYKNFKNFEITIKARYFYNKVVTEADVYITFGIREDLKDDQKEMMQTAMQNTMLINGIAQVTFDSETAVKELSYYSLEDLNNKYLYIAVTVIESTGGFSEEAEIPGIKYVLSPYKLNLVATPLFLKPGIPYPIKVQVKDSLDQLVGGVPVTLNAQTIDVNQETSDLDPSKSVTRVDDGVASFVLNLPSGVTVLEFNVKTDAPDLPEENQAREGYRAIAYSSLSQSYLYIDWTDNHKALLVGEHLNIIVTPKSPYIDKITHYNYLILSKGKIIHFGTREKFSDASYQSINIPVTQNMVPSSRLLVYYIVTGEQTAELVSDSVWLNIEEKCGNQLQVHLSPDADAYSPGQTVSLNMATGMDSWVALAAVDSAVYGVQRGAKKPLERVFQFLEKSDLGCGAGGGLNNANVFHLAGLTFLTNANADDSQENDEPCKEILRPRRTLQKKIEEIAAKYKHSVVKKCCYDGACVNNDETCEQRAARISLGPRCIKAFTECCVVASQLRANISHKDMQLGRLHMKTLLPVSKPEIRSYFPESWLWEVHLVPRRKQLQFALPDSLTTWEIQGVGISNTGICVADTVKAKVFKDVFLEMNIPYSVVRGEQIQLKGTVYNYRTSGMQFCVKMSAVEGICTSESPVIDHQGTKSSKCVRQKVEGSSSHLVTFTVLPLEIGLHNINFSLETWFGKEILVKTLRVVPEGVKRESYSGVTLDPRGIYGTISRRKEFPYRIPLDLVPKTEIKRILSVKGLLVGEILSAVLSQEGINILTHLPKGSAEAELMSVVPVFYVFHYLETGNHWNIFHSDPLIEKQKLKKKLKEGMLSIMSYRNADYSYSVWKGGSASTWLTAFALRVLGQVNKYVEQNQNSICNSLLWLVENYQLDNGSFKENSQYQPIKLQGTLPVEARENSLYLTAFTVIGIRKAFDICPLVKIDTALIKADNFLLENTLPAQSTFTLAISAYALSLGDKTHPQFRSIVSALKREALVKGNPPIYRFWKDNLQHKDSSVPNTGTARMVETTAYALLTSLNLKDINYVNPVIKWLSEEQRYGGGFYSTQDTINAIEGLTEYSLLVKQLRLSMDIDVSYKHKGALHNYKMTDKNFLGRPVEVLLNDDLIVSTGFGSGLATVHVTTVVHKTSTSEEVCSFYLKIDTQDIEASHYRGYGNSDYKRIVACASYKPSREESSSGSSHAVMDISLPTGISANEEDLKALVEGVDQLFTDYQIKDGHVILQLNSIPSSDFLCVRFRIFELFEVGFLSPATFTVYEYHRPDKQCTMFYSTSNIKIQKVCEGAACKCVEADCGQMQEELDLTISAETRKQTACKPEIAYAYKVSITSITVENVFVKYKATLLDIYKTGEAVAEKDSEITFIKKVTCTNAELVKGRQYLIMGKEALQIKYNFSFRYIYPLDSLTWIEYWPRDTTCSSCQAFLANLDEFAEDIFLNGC"}, "source": "patent US20230115176A1", "about": "(Ra Pharmaceuticals, Inc., priority 2019, published 2023)", "target": "Human C5 (Homo sapiens, UniProt P01031)", "test": "Hemolysis assay, luminescent, classical complement pathway (Example 4, Table 7)", "type": "cell-based", "conditions": "sheep EA cells, […] C5-depleted human serum, 0.5 nM human C5, luminescence readout"}
{"smiles": "C=CC(=O)NCc1cc(OC)c(OCCCCC)cc1NC(=O)N1CCC[C@@H]1c1ccccc1Cl", "values": [{"measurement": "IC50", "result": 137, "unit": "nM"}]}
